Molecular target: C-terminal fragment (residues 395-542) of click beetle green 99 luciferase fused to FKBP (Pyrophorus plagiophthalmus; human) (UniProt P62942)
Test: cell-based or functional assay

rapamycin-dependent induction (fold induction of bioluminescence): 75 fold
Substance: FRB fused to the N-terminal fragment (residues 2-413) of click beetle green 99 luciferase (from UniProt P42345 2024-2113)

— US20080233589A1 (WASHINGTON UNIVERSITY IN ST LOUIS, published 2008)
